Data reported in patent US9421237B2, “Tripeptide boronic acid or boronic ester, preparative method and use thereof” (PEKING UNIVERSITY, priority 2009, dated 2016).

The chains behind the UniProt entries cited, without tags or fusion partners. Where a name states a change or a piece, a line headed by the entry shows the natural chain unless it says otherwise.
UniProt P18421: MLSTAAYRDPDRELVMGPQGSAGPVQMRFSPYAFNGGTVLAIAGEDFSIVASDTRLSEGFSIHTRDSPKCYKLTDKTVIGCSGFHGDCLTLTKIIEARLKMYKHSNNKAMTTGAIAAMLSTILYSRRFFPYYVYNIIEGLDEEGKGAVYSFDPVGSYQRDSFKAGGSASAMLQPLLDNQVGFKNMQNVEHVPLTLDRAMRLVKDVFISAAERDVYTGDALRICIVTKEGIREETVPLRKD
UniProt P28075: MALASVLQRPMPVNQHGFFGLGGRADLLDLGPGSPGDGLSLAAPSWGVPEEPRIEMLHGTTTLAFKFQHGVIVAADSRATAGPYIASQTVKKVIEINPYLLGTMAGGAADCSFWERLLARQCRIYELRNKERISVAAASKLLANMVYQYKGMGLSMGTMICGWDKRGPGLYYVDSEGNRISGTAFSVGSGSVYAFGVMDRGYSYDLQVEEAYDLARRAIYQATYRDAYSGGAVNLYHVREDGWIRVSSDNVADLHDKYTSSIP

Target: T1, 20S proteasome extracted from rat liver, chymotryptic-like (CT-L) activity (Rattus norvegicus, UniProt P18421+P28075)
T1 construct: 20S proteasome extracted from rat liver; from tissue; host or cells: rat liver
Assay: Proteasome inhibition, chymotryptic-like (CT-L) activity, fluorescent peptide Suc-leu-leu-Val-Tyr-AMC
Assay type: biochemical
Settings: rat liver 20S proteasome, 37° C., 1 h
Experimental: The activities of the proteasome were assayed using fluorescent peptides: Suc-leu-leu-Val-Tyr-AMC (Suc represents succinyl, and AMC represents 7-amino-4-methylcoumarin, purchased from SIGMA) for determining chymotryptic-like (CT-L) activity; Z-Ala-Arg-Arg-AMC (Z represents benzyloxycarbonyl, purchased from Calbiochem) for determining trypsin-like (TL) activity; and Z-leu-leu-Glu-βNA (βNA represents β-naphtylamide, purchased from SIGMA) for determining peptidyl-glutamyl-peptide-hydrolyzing (PGPH) enzyme activity.
Method for the aforesaid activity assays is as follows: 1 μg of 20S proteasome extracted from rat liver was incubated with a 100 μL solution containing various concentrations of compounds, 50 μM fluorescent peptides and 20 mM Tris-HCl at 37° C. for 1 h, respectively. The fluorescence released from AMC and RNA reagents was measured by a spectrofluorimeter Fluostar OPTIMA and BMG Germany at excitation/emission wavelengths of 380/440 nm and 335/410 nm, respectively. 0.1% DMSO was used as a solvent control. Compared with the fluorescence of solvent control, an inhibition rate was calculated. Said assays used anticancer drug bortezomib (leukemia drug), namely PS341 as compound for positive control.

IC50: 0.161 ± 0.024 nM
SMILES: CC(C)C[C@H](NC(=O)[C@H](Cc1ccccc1)NC(=O)c1cnccn1)B(O)O [PS341, Bortezomib, reference compound]
